Results on one molecule are retold here after patent US6693189B2, “Materials and method for treating or preventing pathogenic fungal infection” (Ariad Gene Therapeutics, Inc., priority 1996, dated 2004).

By UniProt entry, the sequences of proteins in these tests, tags left out.
UniProt P62942, whole entry: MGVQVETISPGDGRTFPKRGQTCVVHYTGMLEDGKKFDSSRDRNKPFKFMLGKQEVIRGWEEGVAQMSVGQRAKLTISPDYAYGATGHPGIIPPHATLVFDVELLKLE

For this test, the target named is human FKBP12 (Homo sapiens, UniProt P62942). Nature of the test: competitive fluorescence polarization (FP) FKBP binding assay. Particulars: =IC50/IC50 of rapamycin; C24 oximes.

Take `CON=C1CC(C(C)CC2CCC(O)C(OC)C2)OC(=O)C2CCCCN2C(=O)C(=O)C2(O)OC(CCC2C)CC(OC)C(C)=CC=CC=CC(C)CC(C)C(=O)C(OC)C(O)C(C)=CC1C` (stereo not shown) [Compound 5, Rapamycin (E and Z)-24-(O-methyloxime)]: the “fold loss in affinity (vs rapamycin)” value is on record as 616.
